Cyclic peptide permeability, from CycPeptMPDB

Collected by the curators of CycPeptMPDB (Li et al. 2023) from Townsend et al. 2020, doi:10.26434/chemrxiv.13335941.v1.

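Conditions beyond the assay type are not listed; see the original paper. The list need not hold all peptides of the study. Peptides that the database sets to -10, its floor, are left out.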

PAMPA is the parallel artificial membrane permeability assay, which has no cells and reads passive diffusion. Permeability is given as log10 of P in cm/s; higher (less negative) is more permeable.

SMILES | PAMPA (log10 cm/s)
CC(C)C[C@@H]1NC(=O)[C@@H]2CCCN2C(=O)[C@H](CC(C)C)NC(=O)CN(Cc2ccccc2)C(=O)[C@H](C)NC(=O)[C@@H]2CCCN2C(=O)[C@H](Cc2ccccc2)NC1=O | -6.27
CC(C)C[C@@H]1C(=O)N[C@@H](Cc2ccccc2)CC(=O)N2CCC[C@H]2C(=O)N(Cc2ccccc2)CC(=O)N[C@@H](Cc2ccccc2)C(=O)N[C@@H](Cc2ccccc2)CC(=O)N1C | -5.56
CCCN1CC(=O)N[C@@H](CC(C)C)C(=O)N(C)[C@@H](CC(C)C)C(=O)N2CCC[C@H]2C(=O)N(Cc2ccccc2)CC(=O)N[C@@H](Cc2ccccc2)C1=O | -4.99
CC(C)C[C@H]1C(=O)N[C@@H](Cc2ccccc2)CC(=O)N2CCC[C@H]2C(=O)N(Cc2ccccc2)CC(=O)N[C@@H](Cc2ccccc2)C(=O)N(C)[C@H](C)C(=O)N1C | -5.36
CC(C)C[C@@H]1NC(=O)[C@H]2CCCN2C(=O)CN(Cc2ccccc2)C(=O)CN(Cc2ccccc2)C(=O)[C@@H](C)N(C)C(=O)[C@@H]2CCCN2C(=O)[C@H](Cc2ccccc2)NC1=O | -7.46
CCCN1CC(=O)N(C)[C@H](CC(C)C)C(=O)N[C@@H](Cc2ccccc2)CC(=O)N2CCC[C@@H]2C(=O)N(Cc2ccccc2)CC(=O)N[C@@H](Cc2ccccc2)C(=O)N2CCC[C@@H]2C1=O | -5.74
CCCN1CC(=O)N[C@@H](CC(C)C)C(=O)N[C@@H](Cc2ccccc2)CC(=O)N2CCC[C@H]2C(=O)N(Cc2ccccc2)CC(=O)N[C@@H](Cc2ccccc2)C(=O)N2CCC[C@H]2C1=O | -5.97
CCCN1CC(=O)N(Cc2ccccc2)CC(=O)N[C@@H](CC(C)C)C(=O)N2CCC[C@@H]2C(=O)N[C@@H](CC(C)C)C(=O)N[C@@H](Cc2ccccc2)C1=O | -5.64
CCCN1CC(=O)N[C@H](CC(C)C)C(=O)N(Cc2ccccc2)CC(=O)N2CCC[C@H]2C(=O)N(Cc2ccccc2)CC(=O)N[C@@H](Cc2ccccc2)C1=O | -5.83
CC(C)C[C@H]1C(=O)N(C)[C@@H](CC(C)C)C(=O)N2CCC[C@H]2C(=O)N(Cc2ccccc2)CC(=O)N[C@@H](Cc2ccccc2)C(=O)N2CCC[C@H]2C(=O)N[C@@H](Cc2ccccc2)CC(=O)N1C | -5.50
CC(C)C[C@H]1NC(=O)C[C@H](Cc2ccccc2)NC(=O)[C@@H]2CCCN2C(=O)[C@H](Cc2ccccc2)NC(=O)CN(Cc2ccccc2)C(=O)[C@@H]2CCCN2C(=O)C[C@H](Cc2ccccc2)NC1=O | -6.22
CCCN1CC(=O)N(C)[C@H](CC(C)C)C(=O)N(Cc2ccccc2)CC(=O)N2CCC[C@H]2C(=O)N(Cc2ccccc2)CC(=O)N[C@@H](Cc2ccccc2)C1=O | -5.59
CC(C)C[C@@H]1C(=O)N[C@@H](Cc2ccccc2)C(=O)N2CCC[C@H]2C(=O)N[C@H](C)C(=O)N(Cc2ccccc2)CC(=O)N(C)[C@@H](CC(C)C)C(=O)N2CCC[C@H]2C(=O)N1C | -5.24
CC(C)C[C@H]1NC(=O)[C@@H]2CCCN2C(=O)C[C@H](Cc2ccccc2)NC(=O)CN(Cc2ccccc2)C(=O)[C@@H](C)NC(=O)[C@H](Cc2ccccc2)NC1=O | -6.33
CC(C)C[C@H]1C(=O)N2CCC[C@@H]2C(=O)N(C)[C@@H](CC(C)C)C(=O)N[C@@H](Cc2ccccc2)C(=O)N(C)[C@@H](C)C(=O)N(Cc2ccccc2)CC(=O)N1C | -5.10
CC(C)C[C@@H]1NC(=O)CN(Cc2ccccc2)C(=O)[C@@H](C)NC(=O)[C@H]2CCCN2C(=O)[C@H](Cc2ccccc2)NC(=O)CN(Cc2ccccc2)C(=O)[C@@H]2CCCN2C1=O | -6.24
CCCN1CC(=O)N[C@H](CC(C)C)C(=O)N[C@@H](Cc2ccccc2)CC(=O)N2CCC[C@H]2C(=O)N[C@@H](CC(C)C)C(=O)N[C@@H](Cc2ccccc2)C1=O | -5.55
C[C@H]1NC(=O)[C@H](Cc2ccccc2)NC(=O)CN(Cc2ccccc2)C(=O)[C@@H]2CCCN2C(=O)C[C@H](Cc2ccccc2)NC(=O)CN(Cc2ccccc2)C1=O | -5.65
CC(C)C[C@@H]1C(=O)N(Cc2ccccc2)CC(=O)N2CCC[C@@H]2C(=O)N(Cc2ccccc2)CC(=O)N[C@@H](Cc2ccccc2)C(=O)N2CCC[C@@H]2C(=O)N[C@H](C)C(=O)N1C | -6.01
CC(C)C[C@@H]1NC(=O)[C@@H]2CCCN2C(=O)CN(Cc2ccccc2)C(=O)CN(Cc2ccccc2)C(=O)[C@@H](C)NC(=O)[C@H]2CCCN2C(=O)[C@H](Cc2ccccc2)NC1=O | -6.73
CC(C)C[C@H]1C(=O)N(Cc2ccccc2)CC(=O)N2CCC[C@@H]2C(=O)N(Cc2ccccc2)CC(=O)N[C@@H](Cc2ccccc2)C(=O)N2CCC[C@@H]2C(=O)N[C@H](C)C(=O)N1C | -6.94
CCCN1CC(=O)N[C@@H](CC(C)C)C(=O)N(C)[C@@H](CC(C)C)C(=O)N2CCC[C@@H]2C(=O)N(Cc2ccccc2)CC(=O)N[C@@H](Cc2ccccc2)C1=O | -5.13

Extract of 2 entries:

SMILES	PAMPA (log10 cm/s)
CC(C)C[C@H]1C(=O)N(Cc2ccccc2)CC(=O)N2CCC[C@@H]2C(=O)N(Cc2ccccc2)CC(=O)N[C@@H](Cc2ccccc2)C(=O)N2CCC[C@@H]2C(=O)N[C@H](C)C(=O)N1C	-6.94
CC(C)C[C@@H]1C(=O)N[C@@H](Cc2ccccc2)CC(=O)N2CCC[C@H]2C(=O)N(Cc2ccccc2)CC(=O)N[C@@H](Cc2ccccc2)C(=O)N[C@@H](Cc2ccccc2)CC(=O)N1C	-5.56